The source of these data is patent publication US20170280720A1, “ARGININE METHYLTRANSFERASE INHIBITORS AND USES THEREOF” (EPIZYME, INC., priority 2014, published 2017).

Sequences of proteins named here, by UniProt entry; tags and fusion partners are left off. A line that says so, or that is headed by a name, gives the form on record, which may keep a tag or linker. Residues count along the entry.
UniProt Q99873, 1-371 with tags or gaps: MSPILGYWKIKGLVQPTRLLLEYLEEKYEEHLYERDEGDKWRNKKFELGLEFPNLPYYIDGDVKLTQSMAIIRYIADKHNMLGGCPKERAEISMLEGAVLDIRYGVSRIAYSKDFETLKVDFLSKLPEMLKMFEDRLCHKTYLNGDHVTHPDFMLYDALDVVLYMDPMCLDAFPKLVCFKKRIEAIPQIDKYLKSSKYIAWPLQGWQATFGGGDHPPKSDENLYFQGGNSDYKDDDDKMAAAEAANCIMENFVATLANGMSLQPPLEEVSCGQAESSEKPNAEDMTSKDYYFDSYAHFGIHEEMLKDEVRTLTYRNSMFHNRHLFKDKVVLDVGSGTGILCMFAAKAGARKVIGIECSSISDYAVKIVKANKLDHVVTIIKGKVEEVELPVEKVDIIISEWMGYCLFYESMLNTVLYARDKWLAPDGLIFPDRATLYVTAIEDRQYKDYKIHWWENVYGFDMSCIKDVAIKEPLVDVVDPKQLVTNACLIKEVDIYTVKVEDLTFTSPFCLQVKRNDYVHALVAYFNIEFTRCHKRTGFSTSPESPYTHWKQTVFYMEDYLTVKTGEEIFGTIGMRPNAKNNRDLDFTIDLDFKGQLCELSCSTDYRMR
UniProt Q86X55, 2-585 isoform 1 limits assumed: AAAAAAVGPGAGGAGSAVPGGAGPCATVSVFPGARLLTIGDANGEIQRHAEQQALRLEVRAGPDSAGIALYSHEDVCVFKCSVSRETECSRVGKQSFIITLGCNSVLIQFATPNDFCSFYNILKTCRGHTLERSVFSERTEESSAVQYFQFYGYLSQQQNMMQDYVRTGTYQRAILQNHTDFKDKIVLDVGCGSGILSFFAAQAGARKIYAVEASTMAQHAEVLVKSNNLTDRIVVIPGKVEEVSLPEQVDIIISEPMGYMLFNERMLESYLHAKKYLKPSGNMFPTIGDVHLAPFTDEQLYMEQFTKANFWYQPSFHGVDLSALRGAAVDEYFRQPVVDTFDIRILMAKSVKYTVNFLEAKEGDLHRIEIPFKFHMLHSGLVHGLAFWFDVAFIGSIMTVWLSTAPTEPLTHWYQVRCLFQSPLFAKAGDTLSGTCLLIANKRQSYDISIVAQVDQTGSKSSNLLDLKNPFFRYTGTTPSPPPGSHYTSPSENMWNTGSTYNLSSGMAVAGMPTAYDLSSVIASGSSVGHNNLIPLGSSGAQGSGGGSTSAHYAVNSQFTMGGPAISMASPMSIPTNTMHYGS
UniProt O14744, whole entry: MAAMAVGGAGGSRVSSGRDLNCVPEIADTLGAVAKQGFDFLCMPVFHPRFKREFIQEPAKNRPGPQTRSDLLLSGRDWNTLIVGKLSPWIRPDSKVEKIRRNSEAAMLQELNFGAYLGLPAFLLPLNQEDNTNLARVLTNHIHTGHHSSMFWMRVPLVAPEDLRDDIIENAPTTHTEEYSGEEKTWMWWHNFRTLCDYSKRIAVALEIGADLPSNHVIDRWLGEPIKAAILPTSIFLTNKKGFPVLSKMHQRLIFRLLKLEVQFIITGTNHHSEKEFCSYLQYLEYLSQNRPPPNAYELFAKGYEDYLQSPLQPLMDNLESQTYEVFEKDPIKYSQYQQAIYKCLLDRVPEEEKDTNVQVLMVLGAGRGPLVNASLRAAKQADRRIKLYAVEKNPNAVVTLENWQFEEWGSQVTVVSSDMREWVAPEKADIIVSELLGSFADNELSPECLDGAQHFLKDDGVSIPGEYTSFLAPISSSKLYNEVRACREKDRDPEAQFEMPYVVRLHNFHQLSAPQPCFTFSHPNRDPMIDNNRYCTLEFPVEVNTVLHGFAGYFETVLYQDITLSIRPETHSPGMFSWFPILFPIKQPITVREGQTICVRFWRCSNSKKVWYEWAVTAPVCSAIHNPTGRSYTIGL
UniProt Q9BQA1, whole entry partner: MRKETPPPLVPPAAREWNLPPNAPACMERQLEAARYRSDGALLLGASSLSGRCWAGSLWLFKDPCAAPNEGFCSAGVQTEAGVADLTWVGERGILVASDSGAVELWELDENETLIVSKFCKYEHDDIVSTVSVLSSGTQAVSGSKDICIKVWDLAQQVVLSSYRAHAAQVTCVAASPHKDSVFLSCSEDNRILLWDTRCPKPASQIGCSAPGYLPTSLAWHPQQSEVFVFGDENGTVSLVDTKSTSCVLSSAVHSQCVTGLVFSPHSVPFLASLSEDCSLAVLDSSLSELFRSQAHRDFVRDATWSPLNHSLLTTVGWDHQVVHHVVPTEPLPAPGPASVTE

One assay concerns the target human PRMT1 (Homo sapiens, UniProt Q99873). As to the kind of experiment: PRMT1 biochemical assay (3H-SAM Flashplate, peptide substrate). Conditions: read-out: PRMT1_ IC50. The text has this: S-adenosylmethionine (SAM), S-adenosylhomocysteine (SAH), bicine, Tween20, dimethylsulfoxide (DMSO), bovine skin gelatin (BSG), and Tris(2-carboxyethyl)phosphine hydrochloride solution (TCEP) were purchased from Sigma-Aldrich at the highest level of purity possible. ^3H-SAM was purchase from American Radiolabeled Chemicals with a specific activity of 80 Ci/mmol. 384-well streptavidin Flashplates were purchased from PerkinElmer.
Peptide representative of human histone H4 residues 36-50 was synthesized with an N-terminal linker-affinity tag motif and a C-terminal amide cap by 21st Century Biochemicals. The peptide was purified by high-performance liquid chromatography (HPLC) to greater than 95% purity and confirmed by liquid chromatography mass spectrometry (LC-MS). The sequence was Biot-Ahx-RLARRGGVKRISGLI-amide (SEQ ID NO.: 1).
Full-length human PRMT1 isoform 1 (NM_001536.5) transcript clone was amplified from an HEK 293 cDNA library, incorporating flanking 5′ sequence encoding a FLAG tag (DYKDDDDK) (SEQ ID NO.: 2) fused directly to Met 1 of PRMT1. The amplified gene was subcloned into pFastBacI (Life Technologies) modified to encode an N-terminal GST tag and a TEV cleavage sequence ([…] […] […] […] QGGNS)(SEQ ID NO.: 3) fused to Asp of the Flag tag of PRMT1.
Recombinant baculovirus were generated according to Bac-to-Bac kit instructions (Life Technologies). […]

For the next assay, the target named is Human CARM1 (PRMT4) (Homo sapiens, UniProt Q86X55). As to the kind of experiment: CARM1 biochemical assay (3H-SAM Flashplate, peptide substrate). Conditions: read-out: CARM1_ IC50. The text has this: S-adenosylmethionine (SAM), S-adenosylhomocysteine (SAH), bicine, Tween20, dimethylsulfoxide (DMSO), bovine skin gelatin (BSG), sodium butyrate and Tris(2-carboxyethyl)phosphine hydrochloride solution (TCEP) were purchased from Sigma-Aldrich at the highest level of purity possible. ^3H-SAM was purchase from American Radiolabeled Chemicals with a specific activity of 80 Ci/mmol. 384-well streptavidin Flashplates were purchased from PerkinElmer.
Peptide representative of human histone H3 residues 16-30 was synthesized with an N-terminal linker-affinity tag motif and a C-terminal amide cap by 21st Century Biochemicals. The peptide was purified by high-performance liquid chromatography (HPLC) to greater than 95% purity and confirmed by liquid chromatography mass spectrometry (LC-MS). The sequence was Biot-Ahx-PRKQLATKAARKSAP-amide and contained a monomethylated arginine at position 26 (SEQ ID NO.: 14).
Human CARM1 (PRMT4) (NM_199141.1) transcript clone was amplified from an HEK 293 cDNA library, incorporating a flanking 5′ sequence encoding a FLAG tag (MDYKDDDDK) (SEQ ID NO.: 6) fused directly to Ala 2 of CARM1 and 3′ sequence encoding a hexa His sequence (EGHHHHHH) (SEQ ID NO.: 15) fused directly to Ser 608. The gene sequence encoding isoform1 containing a deletion of amino acids 539-561 was amplified subsequently and subcloned into pFastBacMam (Viva Biotech). […]

The next assay deals with PRMT5 (Homo sapiens, UniProt O14744). As to the kind of experiment: PRMT5 IC50 (Table 2; no method described). To be noted: read-out: PRMT5_ IC50. The assay is classed as biochemical.

In the case of `Cc1cc(C)c(CNC(=O)c2ccc(-c3ccc(CNCCN)cc3)[nH]2)c(=O)[nH]1`, the IC50 (usually the midpoint of a concentration-inhibition curve) came out at 128 nM on human PRMT1, 9950 nM at Human CARM1 (PRMT4) and 399 nM at PRMT5.
